{"source": "patent EP0005248A2", "about": "“Tetrapeptidehydrazide derivatives and process for their preparation” (Takeda Chemical Industries, Ltd., priority 1978, dated 1979)", "origin": "cited, not measured here"}
{"substance": "H-Tyr-Gly-Gly-Phe-Leu-OH", "values": [{"measurement": "morphinomimetic action", "setting": "directly administered by the intracerebral route", "result": "display a morphinemimetic action"}, {"measurement": "analgesic action", "setting": "intravenous administration", "result": "do not have an analgesic action"}]}
